The source of these data is patent publication US10842969B2, “Systems and methods of treating malacia by local delivery of hydrogel to augment tissue” (priority 2013, dated 2020).

The structures appear in SMILES notation.

A short description of this series: in vivo. Particulars: pig, bronchial tissue, other: local injection to the bronchial adventitia, average paclitaxel concentration in bronchial tissue, low dose group, first two distal and first two proximal segments (4 cm around injection site).

Compound `CC(=O)O[C@H]1C(=O)[C@@]2(C)[C@H]([C@H](OC(=O)c3ccccc3)[C@]3(O)C[C@H](OC(=O)[C@H](O)[C@@H](NC(=O)c4ccccc4)c4ccccc4)C(C)=C1C3(C)C)[C@]1(OC(C)=O)CO[C@@H]1C[C@@H]2O` [paclitaxel] returned a concentration at 7 days (0.05 mg/site) of 35 ± 15 nM and a concentration at 7 days (0.65 mg total paclitaxel) of 35 ± 15 nM.
